Chains of the proteins cited; added tags and fusions are not shown. Residues count along the entry.
UniProt P19838, 1-433 limits assumed: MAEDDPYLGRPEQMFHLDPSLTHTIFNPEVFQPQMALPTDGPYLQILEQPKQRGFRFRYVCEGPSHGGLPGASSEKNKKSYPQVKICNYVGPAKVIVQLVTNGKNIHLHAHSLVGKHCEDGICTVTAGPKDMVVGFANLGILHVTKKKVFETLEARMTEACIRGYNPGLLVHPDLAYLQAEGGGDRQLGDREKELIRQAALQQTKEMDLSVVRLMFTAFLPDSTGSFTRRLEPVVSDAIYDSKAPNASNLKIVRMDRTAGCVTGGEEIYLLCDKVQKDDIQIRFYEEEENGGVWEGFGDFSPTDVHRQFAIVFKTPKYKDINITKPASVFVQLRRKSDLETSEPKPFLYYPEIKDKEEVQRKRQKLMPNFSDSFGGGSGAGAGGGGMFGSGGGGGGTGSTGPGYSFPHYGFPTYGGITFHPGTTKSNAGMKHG
UniProt Q04206, whole entry: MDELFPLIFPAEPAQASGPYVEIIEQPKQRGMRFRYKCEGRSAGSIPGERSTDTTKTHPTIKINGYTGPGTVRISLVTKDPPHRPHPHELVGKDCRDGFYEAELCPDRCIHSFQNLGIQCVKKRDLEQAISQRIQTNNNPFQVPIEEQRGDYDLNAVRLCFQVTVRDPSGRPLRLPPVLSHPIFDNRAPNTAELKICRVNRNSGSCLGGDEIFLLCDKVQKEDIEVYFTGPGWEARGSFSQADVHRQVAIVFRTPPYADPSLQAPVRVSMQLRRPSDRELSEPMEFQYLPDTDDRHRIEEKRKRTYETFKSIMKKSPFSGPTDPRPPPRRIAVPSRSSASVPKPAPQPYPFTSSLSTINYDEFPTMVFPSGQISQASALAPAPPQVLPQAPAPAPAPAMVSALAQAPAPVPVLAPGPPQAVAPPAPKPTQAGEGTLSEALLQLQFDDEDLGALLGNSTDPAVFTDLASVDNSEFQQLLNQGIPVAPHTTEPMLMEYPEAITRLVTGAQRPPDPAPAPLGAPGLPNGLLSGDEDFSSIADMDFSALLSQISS

In US8691764B2, “Inhibitors of NF-κB activity” (The Research Foundation for the State University of New York, priority 2007, dated 2014):

Target: NF-κB (Homo sapiens, UniProt P19838+Q04206)
Test: NF-κB activity ELISA (TransBinding NF-κB assay kit), BxPC-3 cells
Assay type: cell-based
Parameters: endogenous in cells; host or cells: BxPC-3
Procedure: NF-κB activity was measured in these cells using the TransBinding NF-κB assay kit and following the instructions of the manufacturer (Panomics). Briefly, nuclear extracts obtained as described above, were incubated for 30 min in an ELISA plate coated with NF-κB consensus DNA sequence to which p50 protein can bind. After binding, antibody against p50 was added and incubated for 1 hour, followed by HRP-conjugated antibody for 1 hour. Afterwards, luminol/enhancer solution and stable peroxide solution were added and chemoluminescence was detected using a luminometer (Bio-Rad).

nitric oxide-donating aspirin [NO-ASA]
NF-κB activity (3 h, ELISA): inhibited NF-κB activity in a concentration-dependent manner | suppression of NF-κB activity (NO-ASA 20 μM): 40% | reduction of NF-κB activity after annexin 1 knock-down (NO-ASA 20 μM, annexin 1-specific siRNA): 10%
